Experimental data from US4027005A, “Diagnostic agents” (New England Nuclear Corporation, priority 1974, dated 1977).

How the values were obtained:
[1] = test system: infarcted myocardial tissue; assay: Infarction tests: accumulation in infarcted myocardial tissue; format: in vivo, rat; settings: 60 min
Method: The technetium-99m-stannous-glucoheptonate agent of Example 1, supra is compared with a technetium-99m-stannous-tetracycline agent, see Holman et al, supra, for effectiveness in preferentially accumulating in infarcted, rather than normal, myocardial tissue. In each case a myocardial infarct is produced in adult rats by surgery. In Example 9, doses of about 3-5 mCi each of the glucoheptonate and tetracycline agents respectively are injected three hours after infarct was induced. The animals are sacrificed one hour after injection and the heart removed. The infarcted tissue, which is visibly distinguishable from normal myocardial tissue, was excised, weighed and counted. The normal myocardial tissue was also weighed and its activity counted and the results are reported as the ratio of the activity per gram of the infarcted tissue to the activity per gram of the normal tissue (A), and the ratio of the activity per gram of the infarcted tissue to activity per gram in the blood (B). Example 10 reports similar results, the difference being that in that example the radionuclides were injected into the live rats eighteen hours after the infarct was induced, rather than three hours.

[2] = prior art; cited from earlier work

technetium-99m-stannous-tetracycline [Tetracycline complex, reference compound]
ratio B: activity per gram of infarcted tissue to activity per gram in the blood ([1]; Example 9: rat, injected three hours after infarct, sacrificed one hour after injection): 2.5 | ratio B: activity per gram of infarcted tissue to activity per gram in the blood ([1]; Example 10: rat, injected eighteen hours after infarct): 2.0 | accumulation, retention or elimination of prior agents (in words) [2]: Neighboring organ uptake was also a problem
